From PubChem BioAssay AID624465 (National Center for Advancing Translational Sciences (NCATS), 2012)
Only a part is listed here, and it is no random draw. Activity calls are given as the source filed them. Rule as the data show it: active = activation above about 40%; inconclusive = between about 15% and that limit; inactive = weaker than that.

By UniProt entry, the sequences of proteins in these tests, tags left out.
UniProt P14416, whole entry: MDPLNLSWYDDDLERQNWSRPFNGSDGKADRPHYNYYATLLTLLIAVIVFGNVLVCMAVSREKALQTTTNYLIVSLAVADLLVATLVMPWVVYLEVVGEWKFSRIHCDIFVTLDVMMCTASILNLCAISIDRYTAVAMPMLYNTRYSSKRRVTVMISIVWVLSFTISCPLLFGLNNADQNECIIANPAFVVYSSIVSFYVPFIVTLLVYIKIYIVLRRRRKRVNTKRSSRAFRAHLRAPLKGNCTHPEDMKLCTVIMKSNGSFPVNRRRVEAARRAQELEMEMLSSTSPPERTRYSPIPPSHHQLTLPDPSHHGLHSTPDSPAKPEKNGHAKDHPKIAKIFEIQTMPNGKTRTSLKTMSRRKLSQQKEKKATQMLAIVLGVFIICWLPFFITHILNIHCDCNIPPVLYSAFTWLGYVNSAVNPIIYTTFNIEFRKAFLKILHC

Target: D(2) dopamine receptor (Homo sapiens) (UniProt P14416)
Assay: Beta-Arrestin HTS for Positive Allosteric Modulators of the Human D2 Dopamine Receptor: Agonists
Conditions: DiscoveRx PathHunter D2 beta-arrestin, luminescence, 90 min; stronger effect = higher value; 100% = 57 uM dopamine signal
Source text: There is great interest in identifying small molecule ligands for G-protein coupled receptors (GPCRs) as nearly 50% of all FDA-approved drugs target these important receptor proteins. […] Amongst the dopamine receptors (DARs), the D2 is arguably one of the most validated drug targets in neurology and psychiatry. For instance, all receptor-based antiparkinsonian drugs primarily work via stimulating the D2 DAR, whereas all FDA-approved antipsychotic agents are antagonists of this receptor. The D2 DAR is also therapeutically targeted in other disorders such as restless legs syndrome, tardive dyskinesia, Tourette's syndrome, and hyperprolactinemia.
To this end, a miniaturized qHTS screen was developed to be screened against the Molecular Libraries Small Molecule Repository (MLSMR). This assay seeks to identify agonists against the D2 DAR.
NIH Molecular Libraries Probe Production Network [MLPCN]
NIH Chemical Genomics Center [NCGC]
PI Name: David Sibley, National Institutes of Neurological Disorders and Stroke
DiscoveRx D2 cells were thawed from frozen stock and seeded at 2,100 cells/ 3 uL/well media (DiscoveRx Plating Reagent 2) with MultiDrop Combi dispenser (Thermo Scientific, Logan, UT) onto white tissue culture treated 1536-well Aurora plates (Brooks Automation, Chelmsford, MA) and allowed to attach overnight at 37 deg C, 5% CO2. Next, 23 nL/well of compound solutions in DMSO were added with a pintool transfer (Kalypsis, San Diego, CA). As the positive control, 1 uL/well dopamine (EC100, 57 uM final concentration) diluted in buffer (HBSS + 10 mM HEPES + SMB + 0.1% Tween-20) was dispensed to 1 column of each plate. The rest of the plate was dispensed with buffer only, 1 uL/well as well. The cells were stimulated by compounds or dopamine control for 90 minutes at 37 deg C, 5% CO2, after which 1.5 ul/well of DiscoveRx detection reagent was added with BioRAPTR FRD dispenser. The detection reagent was prepared by mixing of Galacton Star Substrate, Emerald II solution and PathHunter buffer (supplied by the assay kit) together at 1:5:19 proportion accordingly just prior to dispensing. The plates were incubated at ambient temperature for 1 hour and then the luminescent signal was read on ViewLux plate reader (PerkinElmer, Waltham, MA).

Structure (SMILES)	activation
COc1ccccc1OP(C)(=O)Nc1ccc(Br)cc1 (stereo unspecified)	inactive: -4.22%
CN(C(=O)Cc1ccc(Cl)c(Cl)c1)[C@H]1CCCC[C@H]1N1CCCC1	inactive: -3.68%
Cc1ccc(OP(=O)(Nc2nccs2)Oc2ccc(C)cc2)cc1	inactive: -5.33%
COc1ccc(OP(C)(=O)Nc2ccccn2)cc1 (stereo unspecified)	inactive: 0.63%
COc1ccccc1OP(=O)(Nc1ccc(C)cn1)Oc1ccccc1OC	inactive: -4.33%
CN(C)CCOC(=O)C(O)(c1ccccc1)C1CCCC1 (stereo unspecified)	inactive: -2.33%
Clc1ccc(Cl)c(NC2=NCC(CBr)S2)c1 (stereo unspecified)	inactive: -1.69%
CN1CCCC(OC(=O)C(c2ccccc2)c2ccccc2)C1 (stereo unspecified)	inactive: -6.83%
O=[N+]([O-])c1cc([N+](=O)[O-])c(Nc2ccccn2)c([N+](=O)[O-])c1	inactive: 1.33%
CC(C)CC(=O)NC(Sc1ccc(Cl)cc1)C(Cl)(Cl)Cl (stereo unspecified)	inactive: 0.0663%
Nc1cc(N)c2nonc2c1[N+](=O)[O-]	inactive: 11.5%
Cc1c(NP(C)(=O)Oc2ccc(C(C)C)cc2)c(=O)n(-c2ccccc2)n1C (stereo unspecified)	inactive: 0.755%
O=C(NC(Sc1ccncn1)C(Cl)(Cl)Cl)c1ccccc1 (stereo unspecified)	inactive: -0.84%
Oc1ccccc1CNc1ccccn1	inactive: 2.31%
COc1ccccc1OP(C)(=O)Nc1ccc(C)cc1C (stereo unspecified)	inactive: -1.2%
CP(=O)(Nc1ccccn1)Oc1ccccc1 (stereo unspecified)	inactive: -1.06%
O=[N+]([O-])C1C(O)C(O)C([N+](=O)[O-])C(O)C1O (stereo unspecified)	inactive: 4.11%
CCc1ccc(OP(C)(=O)O)cc1	inactive: -4.05%
CCCC1OP(N)(=O)OCC1CC (stereo unspecified)	inactive: -2.33%
O=C(O)c1ccccc1[As](=O)(O)O	inactive: 0.761%
CC(=O)Nc1ccc([As](=O)(O)O)cc1	inactive: -3.02%
CN(C)P(=O)(N(C)C)n1c(Nc2ccccc2)nnc1-c1ccccc1	inactive: -6.91%
Cc1cc(C)cc(OP(C)(=O)Nc2cccc(C(F)(F)F)c2)c1 (stereo unspecified)	inactive: 0.857%
O=P(Nc1nc2ccc(Cl)cc2s1)(c1ccccc1)c1ccccc1	inactive: -2.38%
CN(C(=O)Cc1ccc(Cl)c(Cl)c1)[C@H]1CCCC[C@@H]1N1CCCC1	inactive: -3.15%
Cc1ccc(NP(=O)(Oc2ccccc2F)Oc2ccccc2F)nc1	inactive: -19.9%

Structure (SMILES)	activation
COc1ccccc1OP(C)(=O)Nc1ccc(C)c(C)c1 (stereo unspecified)	inactive: -3.5%
CCOP(=O)(Nc1ccccc1)OCC	inactive: -2.06%
Cc1cc(SC(NC(=O)c2ccc(F)cc2)C(Cl)(Cl)Cl)ncn1 (stereo unspecified)	inactive: -4.68%
COc1ccc(OP(C)(=O)Nc2ccccc2Br)cc1 (stereo unspecified)	inactive: -1.48%
CCN(N=Nc1nonc1N)c1nonc1N	inactive: -2.56%
CP(=O)(OCCOc1ccccc1)OCCOc1ccccc1	inactive: -0.181%
CP(=O)(Nc1ccc(Cl)cc1Cl)Oc1ccccc1 (stereo unspecified)	inactive: 2.29%
CCCCCCCCCCCCCCCC1C[N+](C)(C)CCOP(C)(=O)O1 (stereo unspecified)	inactive: -3.99%
Nc1cccc2ccc([As](=O)(O)O)cc12	inactive: 8.04%
Nc1ccc2c(ccc3cccnc32)n1.O=[N+]([O-])c1cc([N+](=O)[O-])c(O)c([N+](=O)[O-])c1	inactive: -6.59%
O=P1(N(CCCl)CCCl)OCCCS1 (stereo unspecified)	inactive: -2.88%
O=C(Nc1cc([As](=O)(O)O)ccc1O)c1ccccc1	inactive: 2.71%
CCOC(=O)c1ccc(NP(C)(=O)Oc2ccc(Cl)cc2)cc1 (stereo unspecified)	inactive: -1.17%
CP(=O)(OC12CC3CC(CC(C3)C1)C2)OC12CC3CC(CC(C3)C1)C2	inactive: -0.338%
CC(C)(C)C(=O)NC(Sc1ccncn1)C(Cl)(Cl)Cl (stereo unspecified)	inactive: -4.03%
O=[N+]([O-])c1ncn(CCn2ncnc2[N+](=O)[O-])n1	inactive: 11.6%
O=[N+]([O-])c1cccc(NC2=NCC(CBr)S2)c1 (stereo unspecified)	inactive: -6.04%
COC(=O)C1(C)COP(=O)(Nc2ccccc2)OC1 (stereo unspecified)	inactive: -0.969%
O=C(O)CNc1ccc([As](=O)(O)O)cc1	inactive: -5.55%
COc1ccc(C2=NCC(CBr)S2)cc1 (stereo unspecified)	inactive: -1.93%
COc1ccc(OP(C)(=O)Nc2ccc(Br)cc2)cc1 (stereo unspecified)	inactive: 1.76%
CCN(CC)CC(O)COC(=O)C(O)(c1ccccc1)C1CCCCC1 (stereo unspecified)	inactive: -4.57%
O=C(OCCCN1CCCC1)C(O)(c1ccccc1)C1CCCCC1 (stereo unspecified)	inactive: -2.43%
COc1ccccc1OP(C)(=O)Nc1c(C)n(C)n(-c2ccccc2)c1=O (stereo unspecified)	inactive: -4.67%
CC(=O)N1C2C3N(C(C)=O)C1C1N(C(C)=O)C(C(N1C(C)=O)N3C(C)=O)N2C(C)=O	inactive: -3.6%
O=[N+]([O-])c1cccc2n[nH]nc12	inactive: -0.568%

Structure (SMILES)	activation
CCc1ccc(OP(C)(=O)Nc2cccnc2)cc1 (stereo unspecified)	inactive: -5.06%
Cc1ccc(NP(=O)(Oc2ccccc2)Oc2ccccc2)nc1	inactive: -2.65%
CP(=O)(Oc1ccccc1)N1CCOC1=O (stereo unspecified)	inactive: -2.37%
C[N+]1=C2C=CC=CC=C2SC12C([N+](=O)[O-])=CC([N+](=O)[O-])=C[C-]2[N+](=O)[O-] (stereo unspecified)	inactive: -8.78%
Nc1ccc([As](=O)(O)c2ccc(N)cc2)cc1	inactive: -2.57%
CC(C)(C)c1ccc(OP(C)(=O)O)cc1	inactive: -1.96%
COc1ccccc1OP(C)(=O)Nc1ccccc1Br (stereo unspecified)	inactive: 0.712%
CP(=O)(Nc1ccc(Cl)cc1)Oc1ccc(F)cc1 (stereo unspecified)	inactive: 1.23%
CCN(/C(=N/P(=O)(N1CCOCC1)N1CCOCC1)N1CCOCC1)c1ccc(OC)cc1	inactive: -2.97%
CN(C)C(=O)OCCc1n(C)cc[n+]1C	inactive: -4.13%
CC(C)=N/N=C(\N)N[N+](=O)[O-]	inactive: -4.42%
CC(C)c1nc(Nc2ccccc2)n(P(=O)(N(C)C)N(C)C)n1	inactive: -8.43%
c1cc(-c2nn[nH]n2)ccc1-c1nn[nH]n1	inactive: -14.1%
CC1CCN(C(=O)Oc2c(Cl)cc(Cl)c3cccnc23)CC1	inactive: -3.1%
COC(=O)C1(C)COP(=O)(N2CCCC2)OC1 (stereo unspecified)	inactive: -6.51%
CP(=O)(Oc1ccccc1)OC(c1ccccc1)C(F)(F)F (stereo unspecified)	inactive: -0.359%
CP(=O)(Nc1ccc(SC(F)(F)F)cc1)Oc1ccc(Cl)cc1 (stereo unspecified)	inactive: -3.35%
Cc1cccc(C)c1OP(C)(=O)Nc1ccc(SC(F)(F)F)cc1 (stereo unspecified)	inactive: -1.25%
COP1(=S)c2c(C)nn(CCC#N)c2N=C(c2ccc(F)cc2)N1C (stereo unspecified)	inactive: -2.29%
Cc1cc(C)cc(OP(C)(=O)Nc2ccc(SC(F)(F)F)cc2)c1 (stereo unspecified)	inactive: -3.26%
CCc1ccc(OP(C)(=O)N2CCN(c3ccc([N+](=O)[O-])cc3)CC2)cc1 (stereo unspecified)	inactive: -4.05%
CP(=O)(NC(=O)Nc1ccccc1)Oc1ccccc1 (stereo unspecified)	inactive: -1.64%
O=C(COc1ccccc1)OC1CN2CCC1CC2 (stereo unspecified)	inactive: -2.14%
O=[N+]([O-])c1cc([N+](=O)[O-])c(O)c([N+](=O)[O-])c1.c1ccc(Oc2ccncc2)cc1	inactive: -7.44%
CCOC(=O)c1ccc(NP(C)(=O)Oc2ccc(OC)cc2)cc1 (stereo unspecified)	inactive: 2.44%
CCOC(=O)c1ccc(NC(=O)C(C)(CCl)SC)cc1 (stereo unspecified)	inactive: 5.48%

Structure (SMILES)	activation
CSc1ccc(Nc2c([N+](=O)[O-])cc([N+](=O)[O-])cc2[N+](=O)[O-])cc1	inactive: 2.5%
O=C(OC1CN2CCC1CC2)c1cccc([N+](=O)[O-])c1 (stereo unspecified)	inactive: -3.1%
CCOP(C)(=S)SCC(=O)NC(C)C(=O)O (stereo unspecified)	inactive: 0.0937%
CP(=O)(Nc1ccccn1)Oc1ccc(Cl)cc1 (stereo unspecified)	inactive: -0.54%
CCC(C)N(CC(C)C)C(=S)SC(NC(C)=O)C(Cl)(Cl)Cl (stereo unspecified)	inactive: -4.33%
CC1CCNP(=O)(N(CCCl)CCCl)O1 (stereo unspecified)	inactive: -3.07%
CCOC(=O)Nc1ccc([As](=O)(O)O)c(O)c1	inactive: -0.453%
O=C(O)C(=O)c1ccc(N(CCCl)CCCl)cc1.c1ccc(Nc2ccccc2)cc1	inactive: -4.1%
Cc1cc(SC(NC(=O)c2ccccc2)C(Cl)(Cl)Cl)nc(C(C)C)n1 (stereo unspecified)	inactive: -2.05%
CCCCOc1ccc(C(=O)NCC2(N3CCCCC3)CCCCC2)cc1OC	inactive: -16.1%
COP(=O)(OC)N1CC1c1ccccc1 (stereo unspecified)	inactive: -9.23%
CCOC(=O)Nc1cccc([As](=O)(O)O)c1	inactive: 0.554%
CP(=S)(Nn1cnnc1)Oc1ccccc1 (stereo unspecified)	inactive: 0.0172%
O=[N+]([O-])c1ccc(Nc2ccc(Oc3ccc([N+](=O)[O-])cc3[N+](=O)[O-])cc2)c([N+](=O)[O-])c1	inactive: 4.84%
CP(=O)(Nc1ccccc1Br)Oc1ccccc1 (stereo unspecified)	inactive: -10.3%
COc1ccccc1OP(C)(=O)Nc1ccccc1 (stereo unspecified)	inactive: -2.68%
Cc1cc(SC(NC=O)C(Cl)(Cl)Cl)ncn1 (stereo unspecified)	inactive: -2.93%
O=P(Nc1ccccn1)(c1cccc2ccccc12)c1cccc2ccccc12	inactive: 2.54%
COc1cc(C(=O)NCC2(N3CCOCC3)CCCCC2)ccc1OCC(C)C	inactive: -0.351%
O=[N+]([O-])c1ccc(-c2cc([N+](=O)[O-])c(O)c([N+](=O)[O-])c2)cc1	inactive: -8.85%
O=[As](O)(c1ccc(O)cc1)c1ccccc1O	inactive: 0.545%
C[As](=O)(O)c1cccc(C(=O)O)c1	inactive: -8.06%
O=[N+]([O-])c1cc([N+](=O)[O-])c(Nc2cccnc2)c([N+](=O)[O-])c1	inactive: -15%
